Biological target: Menin (Homo sapiens, UniProt O00255)
Assay: Inhibition of FAM-probe binding to Menin (unknown origin) after 60 mins by fluorescence polarization competitive binding assay

Chains of the proteins cited; added tags and fusions are not shown.
UniProt O00255, whole entry: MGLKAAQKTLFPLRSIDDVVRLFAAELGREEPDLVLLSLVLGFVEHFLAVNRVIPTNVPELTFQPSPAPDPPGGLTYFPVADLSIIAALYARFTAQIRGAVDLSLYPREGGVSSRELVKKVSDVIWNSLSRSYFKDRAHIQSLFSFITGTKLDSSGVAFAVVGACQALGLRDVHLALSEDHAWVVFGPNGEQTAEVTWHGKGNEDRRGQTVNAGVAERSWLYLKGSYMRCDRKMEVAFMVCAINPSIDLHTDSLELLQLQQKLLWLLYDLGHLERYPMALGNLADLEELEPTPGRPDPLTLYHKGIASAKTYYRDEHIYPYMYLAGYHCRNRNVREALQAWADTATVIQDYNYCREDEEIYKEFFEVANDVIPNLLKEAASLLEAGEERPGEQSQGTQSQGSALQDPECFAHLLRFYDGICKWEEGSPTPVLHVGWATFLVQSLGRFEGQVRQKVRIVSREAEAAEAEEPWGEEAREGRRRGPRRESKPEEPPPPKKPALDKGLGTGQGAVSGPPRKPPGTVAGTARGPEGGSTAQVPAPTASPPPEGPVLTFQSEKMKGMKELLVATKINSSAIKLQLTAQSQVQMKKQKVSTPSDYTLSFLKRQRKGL

With N#Cc1ccc(OCCCN2CCC(C3(C4CCCC4)NCCc4ccccc43)CC2)cc1 (stereo unspecified) the Ki was 22 nM.

From ChEMBL document CHEMBL4364283 (J Med Chem, 2019)
